Test results: PubChem BioAssay (NCI)
The list shows a part of the results, in another mix than the full data. More than one record can exist for a structure, and the calls need not agree. The source made the active and inactive calls. Rule as the data show it: active = growth inhibition above about 70%; inactive = the rest.

What was measured:
[1] = NCI Yeast Anticancer Drug Screen. Data for the rad50 strain (AID 155);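 also: 0% = growth of vehicle-only cultures of the same strain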; settings: S. cerevisiae rad50 strain growth inhibition; at 50.0 µM; hits give high values
[2] = NCI Yeast Anticancer Drug Screen. Data for the mec2-1 strain (AID 157); settings: S. cerevisiae mec2-1 strain, at 50.0 µM, hits give high values
[3] = NCI Yeast Anticancer Drug Screen. Data for the sgs1 mgt1 strain (AID 161);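 also: 0% = growth of cultures given vehicle only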; settings: S. cerevisiae sgs1 mgt1 strain, at 50.0 µM, hits give high values
[4] = NCI Yeast Anticancer Drug Screen. Data for the cln2 rad14 strain (AID 165);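 also: 0% = growth equal to vehicle treated cultures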; settings: S. cerevisiae cln2 rad14 strain, at 50.0 µM, hits give high values
[5] = NCI Yeast Anticancer Drug Screen. Data for the bub3 strain (AID 167); settings: S. cerevisiae bub3 mutant strain, at 50.0 µM, hits give high values
[6] = NCI Yeast Anticancer Drug Screen. Data for the mlh1 rad18 strain (AID 175); settings: S. cerevisiae mlh1 rad18 strain growth inhibition; at 50.0 µM; hits give high values

Measured: growth inhibition

O=P1(N(CCCl)CCCl)OCC(CCl)O1 (stereo not given)
inactive: [1] 4.7% | [2] 7.3% | [3] 0.85% | [4] 10.9% | [5] -0.85% | [6] 7.4%

CN(C)CCCOC(=O)C(O)(Cc1ccccc1)c1cccc2c1OC(C)(C)C2 (stereo not given)
inactive: [1] -20.5% | [2] -10.7% | [3] 7.85% | [4] 20% | [5] 2.2% | [6] -14.3%

ClCCN(C1CCCCC1)C1CCCCC1
inactive: [1] -8.1% | [2] -6.65% | [3] 11.4% | [4] -11.8% | [5] -11.8% | [6] -5.75%

O=P(OCCCO)(N(CCCl)CCCl)N1CC1 (stereo not given)
inactive: [1] 12.5% | [2] 8.5% | [3] 12.3% | [4] 6% | [5] 2.6% | [6] 3.55%

CCCCNC(=NC)NP(=O)(NCCCC)NCCCC
inactive: [1] 15.2% | [2] 6.25% | [3] 8.6% | [4] 6.05% | [5] -3.95% | [6] -8.2%

FC(F)(F)c1cccc(NC2=NCC(CI)S2)c1 (stereo not given)
inactive: [1] 30.9% | [2] -16.1% | [3] 11.5% | [4] 1.15% | [5] -5.65% | [6] 18.7%

O=[N+]([O-])c1cc(Cl)cc([N+](=O)[O-])c1O
inactive: [1] 49.8% | [2] 21.2% | [3] 4.7% | [4] -36.6% | [5] -7.9% | [6] 34.5%

Cc1ccc2c(c1)C[P+](c1ccccc1)(c1ccccc1)CCC2C (stereo not given)
inactive: [1] 21.1% | [2] 28.9% | [3] -6.05% | [4] -34.6% | [5] 5.2% | [6] -13.6%

Cc1cccc(N[P@]2(Cl)=NP(Cl)(Cl)=N[P@@](Cl)(Nc3cccc(C)c3)=NP(Cl)(Cl)=N2)c1
inactive: [1] -0.4% | [2] -3.1% | [3] -0.55% | [4] -7.45% | [5] -5% | [6] 8.85%

c1ccc([As+](c2ccccc2)(c2ccccc2)c2ccccc2)cc1
inactive: [1] 26.1% | [2] 2.4% | [3] 11.4% | [4] -0.05% | [5] -1.8% | [6] 7.25%

O=P1(Cl)OC(c2ccccc2)=CCN1CCCl (stereo not given)
inactive: [1] -6.85% | [2] 0.45% | [3] 1.25% | [4] -31.4% | [5] -6.9% | [6] 8.65%

CN(C)/C(N)=N/[N+](=O)[O-]
inactive: [1] -0.4% | [2] -7.25% | [3] -39.8% | [4] -19.2% | [5] 0.5% | [6] 0.95%

CC1(CCl)COP(=O)(n2ccnc2)OC1 (stereo not given)
inactive: [1] -16.7% | [2] -12.2% | [3] -7.05% | [4] -37% | [5] -18.2% | [6] -26.9%

C[As](C)SC1OC(CO)C(O)C(O)C1O (stereo not given)
inactive: [1] 8.2% | [2] 13.7% | [3] 3.8% | [4] 18.6% | [5] 14.7% | [6] 31.6%

c1ccc(CNCCNCc2ccccc2)cc1
inactive: [1] 34.6% | [2] -10% | [3] 27.4% | [4] 23.1% | [5] 30.6% | [6] 27.2%
